# Antibody variant affinities, Ab-95 light chain, assay 2

Binding partner: SARS-CoV-2 spike HR2 peptide, sequence PDVDLGDISGINAS.

The variants keep the heavy chain, the linker and the frameworks of Ab-95 (scFv order VH, three GGGGS repeats, VL).
VH: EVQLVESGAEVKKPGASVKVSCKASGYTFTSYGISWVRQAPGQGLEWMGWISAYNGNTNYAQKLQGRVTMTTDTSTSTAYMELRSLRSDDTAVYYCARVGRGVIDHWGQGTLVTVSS
VL: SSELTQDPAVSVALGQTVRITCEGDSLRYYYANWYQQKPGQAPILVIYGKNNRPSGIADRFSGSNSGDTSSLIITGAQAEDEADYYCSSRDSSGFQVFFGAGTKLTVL

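The starting antibody came from a phage panning campaign against this peptide. AAYL52 was designed without a model: most single CDR substitutions and a random sample of double and triple ones. The assay is AlphaSeq: two haploid yeast populations carry antibody and antigen on their surface. Binding brings cells together so that they mate, and sequencing counts the barcode pairs among the diploids. A regression on co-assayed BCL2-family reference pairs converts the normalised counts of each replicate to an apparent Kd. There are three technical replicates.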

Each variant is given by its three light chain CDRs, as the data file delimits them; those of the parent are EGDSLRYYYAN, GKNNRPS, SSRDSSGFQVF.
Every variant below is changed at A32 of the VL (sequential numbering).
Each Kd is an estimate from the mating assay, the geometric mean of the replicates in which the pair was seen; lower is stronger.
"nd" marks a missing value. The strain was present, yet no cells mated with the target were sequenced in any replicate, which points to weak or no binding.
As a blank, each scFv also met three strains without target: over library AAYL52, 28% of these pairings were detected, typically at 8.2 µM and seldom below 800 nM.

The variant EGDSLRYHYFN | GKNNRPS | SSRDSNGFQVF gave 670 nM (2 of 3 replicates).
The variant EGDSLRYYYIN | GKNNRWS | SDRDSSGFQVF gave 2.5 µM (1 of 3 replicates).
The variant EGRDLRYYYKN | GKNNRPS | SSRDSSGFQVF gave 110 µM (1 of 3 replicates).
The variant EGDSLRYEYCN | GKNNRPS | SSRDSSGFQVF gave 57 nM (3 of 3 replicates).
The variant MGDSLRYYYRN | GKNNRPS | SSRDSSGNQVF gave 3.5 µM (2 of 3 replicates).
The variant EGDSLRYYYVC | GKNNRPH | SSRDSSGFQVF gave 5.1 µM (1 of 3 replicates).
The variant EGDSLRYYYEN | GMNNRPS | SSRDSGGFQVF gave 200 µM (2 of 3 replicates).
The variant EWDSLRYYYFN | GKNNRPS | SSADSSGFQVF gave nd (0 of 3 replicates).
The variant EADSLRYYYIN | GKNNRPS | SYRDSSGFQVF gave 13 µM (1 of 3 replicates).
The variant EGDSLRYYELN | GKNNRPS | SSRDSSGFQVF gave 420 nM (3 of 3 replicates).
The variant EGTSLRYYYEN | GKNNRPS | SSRDSSGFRVF gave 13 µM (2 of 3 replicates).
The variant EGDSLRYYYMN | GKNNRPS | MSRDSRGFQVF gave 5.0 µM (1 of 3 replicates).
The variant WGDSLRYYYCN | GKINRPS | SSRDSSGFQVF gave 5.1 µM (1 of 3 replicates).
The variant EGDQLRYYYVN | VKNNRPS | SSRDSSGFQVF gave 1.3 µM (2 of 3 replicates).
The variant EGDSLRYYYTN | GKNNRPS | SYRISSGFQVF gave 550 nM (3 of 3 replicates).
The variant EGDSKRYYYSH | GKNNRPS | SSRDSSGFQVF gave 17 µM (1 of 3 replicates).
The variant EGDSLYYYYIN | GKNNRPS | SSRDSSGFQVG gave 5.6 µM (3 of 3 replicates).
The variant EGDSLRYYYMN | GKCNRPS | SFRDSSGFQVF gave 290 µM (1 of 3 replicates).
The variant ELDSLRYYYKN | GKNNRPS | SSTDSSGFQVF gave 110 µM (1 of 3 replicates).
The variant EGDSLQYYYRN | GKNRRPS | SSRDSSGFQVF gave 74 µM (2 of 3 replicates).
The variant EGSSLRYYYPR | GKNNRPS | SSRDSSGFQVF gave 350 nM (3 of 3 replicates).
The variant EGDQLRYYYTN | GKNDRPS | SSRDSSGFQVF gave 6.7 µM (2 of 3 replicates).
The variant EGDSLRLYYSN | GKNNRPS | MSRDSSGFQVF gave 120 nM (3 of 3 replicates).
The variant IGDSLRYAYPN | GKNNRPS | SSRDSSGFQVF gave 8.2 nM (3 of 3 replicates).
The variant EGDSLRYYYSN | GKNNRPS | SSRDSMGCQVF gave 390 nM (3 of 3 replicates).
The variant EGDSLRYYYHN | GKTNRPS | SSRDSSGFQVF gave 4.9 µM (3 of 3 replicates).
The variant EGDSLLYYYFK | GKNNRPS | SSRDSSGFQVF gave 350 nM (3 of 3 replicates).
The variant EGDSLRYYYWN | GKNNRPS | TPRDSSGFQVF gave nd (0 of 3 replicates).
The variant EGDSLRYYYKN | GKNNRPS | SSRWSSGFQVF gave nd (0 of 3 replicates).
The variant EGDSLRYYYIN | GKNNRPS | SCRDSEGFQVF gave nd (0 of 3 replicates).
The variant EGDSLRYHYPN | GKNNRPS | TSRDSSGFQVF gave 370 nM (3 of 3 replicates).
The variant EGDSLRYYYEN | GKNNRPS | SSRDSSGFQWF gave nd (0 of 3 replicates).
The variant EGDSPRYYYFN | GKNNRPS | SSRDSSGFQCF gave 39 µM (2 of 3 replicates).
The variant EGDSLRYYYEN | GKSNRPS | SSRDSSGFQEF gave 37 µM (1 of 3 replicates).
The variant EGDSLRYLYCN | GKNNNPS | SSRDSSGFQVF gave 6.0 µM (2 of 3 replicates).
The variant EGPSNRYYYNN | GKNNRPS | SSRDSSGFQVF gave 890 nM (3 of 3 replicates).
The variant EGDSLRYYYFN | GKNNQPS | SERDSSGFQVF gave 38 µM (1 of 3 replicates).
The variant EGDSQRYYYIN | GKNNRPS | SSRDSSGGQVF gave nd (0 of 3 replicates).
The variant EGDSLMYYYMK | GKNNRPS | SSRDSSGFQVF gave 13 µM (2 of 3 replicates).
The variant EGDSLRYYSNN | GKNNRPS | SSGDSSGFQVF gave 1.5 µM (3 of 3 replicates).
The variant EGDSLRYYYVN | GKNNRPW | SSRDSSGFQVF gave 250 nM (2 of 3 replicates).
The variant EGMSLRYYYRN | GKNNRPS | SARDSSGFQVF gave 23 µM (2 of 3 replicates).
The variant EGDSLRYYYPN | GKNNRPS | SSRCDSGFQVF gave 19 µM (2 of 3 replicates).
The variant EGDTLRYYYGN | GKNNRPS | QSRDSSGFQVF gave nd (0 of 3 replicates).
The variant EGDSLRYGYFN | GKNNRPS | SSRGSSGFQVF gave 11 µM (1 of 3 replicates).
The variant EGDSLRYYYFN | GKNNCGS | SSRDSSGFQVF gave 4.8 µM (2 of 3 replicates).
The variant EGDSLRYYYFN | GANNRPD | SSRDSSGFQVF gave nd (0 of 3 replicates).
The variant EGDSLRYYYDN | GVNNRPS | SSRDSSGFQVT gave 5.8 µM (1 of 3 replicates).
The variant RGDSLRYYYRN | GKNNRPS | SPRDSSGFQVF gave 47 µM (1 of 3 replicates).
The variant EGDSLRYYYTN | GKNNRQS | SSRDSSGFQVF gave 1.4 µM (3 of 3 replicates).

Picked from the list: the 4 lowest averages where every replicate gave a value.

{"CDR-L1": "IGDSLRYAYPN", "CDR-L2": "GKNNRPS", "CDR-L3": "SSRDSSGFQVF", "apparent Kd": "8.2 nM", "detected": "3/3"}
{"CDR-L1": "EGDSLRYEYCN", "CDR-L2": "GKNNRPS", "CDR-L3": "SSRDSSGFQVF", "apparent Kd": "57 nM", "detected": "3/3"}
{"CDR-L1": "EGDSLRLYYSN", "CDR-L2": "GKNNRPS", "CDR-L3": "MSRDSSGFQVF", "apparent Kd": "120 nM", "detected": "3/3"}
{"CDR-L1": "EGSSLRYYYPR", "CDR-L2": "GKNNRPS", "CDR-L3": "SSRDSSGFQVF", "apparent Kd": "350 nM", "detected": "3/3"}

Reference: Engelhart et al. 2022, doi:10.1038/s41597-022-01779-4. File: FLAb, binding data.